# Assay results reported in article PMC7596085, “The pathogenic S688Y mutation in the ligand-binding domain of the GluN1 subunit regulates the properties of NMDA receptors” (Scientific Reports, 2020).
# By UniProt entry, the sequences of proteins in these tests, tags left out. Where a name states a change or a piece, a line headed by the entry shows the natural chain unless it says otherwise. Residues count along the entry.
# UniProt Q8TCU5, 24-1115: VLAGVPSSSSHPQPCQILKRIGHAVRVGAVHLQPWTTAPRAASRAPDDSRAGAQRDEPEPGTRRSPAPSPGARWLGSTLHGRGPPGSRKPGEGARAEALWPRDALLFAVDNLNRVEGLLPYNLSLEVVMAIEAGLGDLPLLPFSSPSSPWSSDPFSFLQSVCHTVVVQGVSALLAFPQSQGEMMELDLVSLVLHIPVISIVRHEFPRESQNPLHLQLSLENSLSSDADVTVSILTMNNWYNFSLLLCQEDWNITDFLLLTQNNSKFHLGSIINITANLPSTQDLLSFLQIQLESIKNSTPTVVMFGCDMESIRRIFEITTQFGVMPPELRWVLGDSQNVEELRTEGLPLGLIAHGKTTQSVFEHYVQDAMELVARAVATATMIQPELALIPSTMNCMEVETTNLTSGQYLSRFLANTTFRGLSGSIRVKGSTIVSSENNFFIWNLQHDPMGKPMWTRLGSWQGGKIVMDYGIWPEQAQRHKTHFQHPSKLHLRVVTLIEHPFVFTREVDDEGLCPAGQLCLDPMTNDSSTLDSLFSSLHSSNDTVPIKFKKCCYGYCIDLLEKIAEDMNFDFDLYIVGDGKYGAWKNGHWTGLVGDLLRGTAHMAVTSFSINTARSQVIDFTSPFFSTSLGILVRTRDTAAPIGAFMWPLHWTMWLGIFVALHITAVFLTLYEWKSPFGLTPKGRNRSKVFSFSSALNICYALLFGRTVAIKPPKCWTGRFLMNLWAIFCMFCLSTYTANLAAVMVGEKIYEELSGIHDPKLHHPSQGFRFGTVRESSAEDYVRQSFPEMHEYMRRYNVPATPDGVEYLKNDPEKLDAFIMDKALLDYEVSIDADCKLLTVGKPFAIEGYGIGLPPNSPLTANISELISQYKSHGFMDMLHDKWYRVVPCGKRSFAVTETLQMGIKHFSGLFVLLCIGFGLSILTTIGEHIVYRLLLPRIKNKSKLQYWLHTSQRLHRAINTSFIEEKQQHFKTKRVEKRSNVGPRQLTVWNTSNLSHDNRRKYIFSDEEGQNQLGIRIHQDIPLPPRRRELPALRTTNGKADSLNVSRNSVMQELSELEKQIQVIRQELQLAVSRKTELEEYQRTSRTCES
# Assays:
# hGluN1-4a/hGluN3A = hGluN1-4a/hGluN3A (UniProt P35439+Q8TCU5, I267L/M415L/N159S/R212K); details: peak concentration-response, HEK293
# hGluN1-4a-S688Y/hGluN3A = hGluN1-4a-S688Y/hGluN3A (UniProt P35439+Q8TCU5, I267L/M415L/N159S/R212K/S688Y); details: peak concentration-response, HEK293
# [1] = target: T1, hippocampal neurons expressing YFP-hGluN1-1a (Rattus norvegicus, UniProt P35439, I267L/M415L/N159S/R212K); assay: NMDA-induced excitotoxicity, hippocampal neurons expressing YFP-hGluN1-1a; format: cell-based; details: 10 µM co-agonist in the presence of 100 µM NMDA, 1 h treatment, measured 23 h later
# T1 construct: expressed in transfected cells; host or cells: primary rat hippocampal neurons (E18 Wistar), lentiviral infection with shRNA knock-down of endogenous GluN1
# Description: Excitotoxicity was measured 23 h after treatment by staining cells with the nuclear marker Hoechst 33,342 and then performing complex image analysis (Fig. 6a,b; see "Methods").
# Excitotoxicity was induced as described previously. In brief, the cultured neurons were incubated overnight in 10% MEM (Thermo Fisher Scientific) and 90% salt-glucose (SG) medium containing 114 mM NaCl, 0.219% NaHCO3, 5.292 mM KCl, 1 mM MgCl2, 2 mM CaCl2, 10 mM HEPES, 30 mM glucose, […], and 0.1% phenol red. The following day, the media was replaced with 100% SG and the indicated concentrations of agonists/co-agonists were added to the neurons. […] Nuclear area was measured using ImageJ software (v. 1.52p), and custom-made macro scripts were used to automatically measure only the nuclei of infected cells (identified by YFP expression). […] The ratio of the number of cells in each group was then used to estimate the effects of mixing the two distributions and is expressed as the ratio of pyknotic and non-pyknotic cells. The percentage of pyknotic cells in each condition was then calculated as the number of cells classified as pyknotic divided by the total number of cells in that condition.
smiles,measurement,setting,value
NCC(=O)O [glycine],Hill coefficient (h),hGluN1-4a/hGluN3A,1.26 ± 0.24
same,Hill coefficient (h),hGluN1-4a-S688Y/hGluN3A,1.49 ± 0.10
same,"neuronal cell death / excitotoxicity (% of d.n., pyknotic nuclei)",[1],~100%
